Results from ChEMBL document CHEMBL1158490, “Discovery of leukotriene A4 hydrolase inhibitors using metabolomics biased fragment crystallography” (J Med Chem, 2009).

Key:
[1] = target: T1, Leukotriene A-4 hydrolase (Homo sapiens, UniProt P09960); test: Inhibition of peptidase activity of human recombinant LTA4H expressed in Escherichia coli BL21-AI/pRARE
T1 sequence (P09960 whole entry): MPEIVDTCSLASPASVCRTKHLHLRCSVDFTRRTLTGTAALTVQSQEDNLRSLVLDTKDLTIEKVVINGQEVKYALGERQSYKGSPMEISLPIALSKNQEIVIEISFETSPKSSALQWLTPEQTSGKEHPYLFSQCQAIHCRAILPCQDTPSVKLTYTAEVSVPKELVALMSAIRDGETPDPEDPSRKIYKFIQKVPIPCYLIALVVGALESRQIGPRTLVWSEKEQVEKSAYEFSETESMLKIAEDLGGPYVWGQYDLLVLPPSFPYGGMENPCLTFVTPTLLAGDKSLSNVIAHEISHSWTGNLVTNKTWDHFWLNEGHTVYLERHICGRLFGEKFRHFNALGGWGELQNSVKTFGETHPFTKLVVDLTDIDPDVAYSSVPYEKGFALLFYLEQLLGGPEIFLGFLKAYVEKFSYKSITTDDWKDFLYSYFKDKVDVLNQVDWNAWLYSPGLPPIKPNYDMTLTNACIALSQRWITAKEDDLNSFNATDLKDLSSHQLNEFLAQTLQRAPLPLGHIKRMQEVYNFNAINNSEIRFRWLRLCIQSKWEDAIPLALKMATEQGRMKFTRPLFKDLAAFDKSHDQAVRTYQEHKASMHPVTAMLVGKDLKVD

[2] = target: T1, Leukotriene A-4 hydrolase; test: Inhibition of hydrolase activity of human recombinant LTA4H expressed in Escherichia coli BL21-AI/pRARE assessed as LTB4 formation by tandem quadrupole mass spectrometry

SMILES | IC50 [1] | IC50 [2]
Nc1nc(-c2ccc(O)cc2)cs1 | > 1000 µM | 1440 µM
NCc1ccc(-c2cccs2)s1 | 38.9 µM | 75.2 µM
OC(c1ccncc1)c1ccc(OCCN2CCCC2)cc1 (stereo not drawn) |  | 170 µM
O=C(O)C1CCN(CCOc2ccc3[nH]ccc3c2)CC1 |  | 966 µM
O=C(c1ccncc1)c1ccc(F)cc1 |  | 5310 µM
c1ccc(CNc2ccc(OC[C@H]3CCCN3)cc2)cc1 |  | 0.157 µM
